Results as given in PubChem BioAssay (Tox21).
Several values for one entry are separate records, joined by “and”; a condition that tells them apart may be missing. Equal entries are not always repeated. Only a part is listed here, and it is no random draw. Inconclusive results are not listed. Activity calls are given as the source filed them. Unless noted, the call rests on the fitted dose curve; in most records, active means well fitted curve in the direction sought with a large enough effect in the repeat runs; inconclusive means weak or mixed curves; inactive means no such curve, though single readings can be large; an effect the other way counts as inactive or inconclusive.

Protein sequences, listed by entry. Tags and fused reporters are not part of them.
UniProt P19793, whole entry: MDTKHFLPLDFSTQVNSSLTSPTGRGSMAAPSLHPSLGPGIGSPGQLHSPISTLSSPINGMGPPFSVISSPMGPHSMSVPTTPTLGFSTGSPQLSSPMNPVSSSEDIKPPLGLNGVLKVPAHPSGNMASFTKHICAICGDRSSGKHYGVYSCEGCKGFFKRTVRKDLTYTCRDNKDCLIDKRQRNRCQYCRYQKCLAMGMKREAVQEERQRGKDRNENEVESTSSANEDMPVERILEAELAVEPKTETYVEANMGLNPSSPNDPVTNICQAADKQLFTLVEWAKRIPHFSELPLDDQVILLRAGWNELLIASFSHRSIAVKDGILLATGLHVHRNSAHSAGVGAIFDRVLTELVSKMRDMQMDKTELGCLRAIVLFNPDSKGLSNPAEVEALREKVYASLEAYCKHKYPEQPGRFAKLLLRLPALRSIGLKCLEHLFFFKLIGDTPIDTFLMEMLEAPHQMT
UniProt Q96RI1, whole entry: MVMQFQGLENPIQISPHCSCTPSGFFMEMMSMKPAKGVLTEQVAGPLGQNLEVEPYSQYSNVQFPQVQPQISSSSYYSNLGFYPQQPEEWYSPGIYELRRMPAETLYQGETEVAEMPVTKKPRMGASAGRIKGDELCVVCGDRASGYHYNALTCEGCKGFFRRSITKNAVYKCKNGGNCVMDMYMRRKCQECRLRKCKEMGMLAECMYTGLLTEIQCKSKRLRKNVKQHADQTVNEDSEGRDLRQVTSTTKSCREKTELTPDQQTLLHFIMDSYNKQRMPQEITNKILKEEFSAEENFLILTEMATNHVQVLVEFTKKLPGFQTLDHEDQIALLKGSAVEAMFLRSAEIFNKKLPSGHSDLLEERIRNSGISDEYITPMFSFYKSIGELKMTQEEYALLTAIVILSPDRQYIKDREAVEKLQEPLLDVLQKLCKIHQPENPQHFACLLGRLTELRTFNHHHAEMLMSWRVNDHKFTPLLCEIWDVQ
UniProt P11473, whole entry: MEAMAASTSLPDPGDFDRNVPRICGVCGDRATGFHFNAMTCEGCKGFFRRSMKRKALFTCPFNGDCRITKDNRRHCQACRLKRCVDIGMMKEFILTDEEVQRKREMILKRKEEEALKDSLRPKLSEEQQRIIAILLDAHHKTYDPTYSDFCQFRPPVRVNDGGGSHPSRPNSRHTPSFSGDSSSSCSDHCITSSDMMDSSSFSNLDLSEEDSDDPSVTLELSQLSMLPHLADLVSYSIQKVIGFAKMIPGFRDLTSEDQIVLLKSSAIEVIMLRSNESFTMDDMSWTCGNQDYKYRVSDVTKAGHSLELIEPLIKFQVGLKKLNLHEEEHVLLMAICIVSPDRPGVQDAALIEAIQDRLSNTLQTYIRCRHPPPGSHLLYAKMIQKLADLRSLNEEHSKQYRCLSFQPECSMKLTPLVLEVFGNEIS

Legend:
[1] = qHTS assay to identify small molecule antagonists of the retinoid-related orphan receptor gamma (ROR-gamma) signaling pathway - cell viability counter screen (AID 1159520); details: Tet-on RORgamma CHO cells viability, ATP luminescence, 16 h; at 92.4 µM (top of the series) unless noted; further: on the % scale 0 is the no-effect control and ±100 the full control effect; nearly all actives have a fitted effect of over 50% in size
Method in brief: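 Tet-on ROR gamma CHO cells were given compounds for 2 hr, then doxycycline hyclate at 1 uM final, and incubated 16 hr at 37 C. Viability was measured as ATP content by CellTiter-Glo luminescence.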

[2] = qHTS assay to identify small molecule agonists of the AP-1 signaling pathway - cell viability counter screen (AID 1159525; calls by dose curve; further: nearly all actives have a fitted effect of over 55% in size); details: ME-180 AP-1-bla cells viability, ATP luminescence, 5 h; at 76.8 µM (top of the series) unless noted
Method in brief: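 AP-1-bla ME-180 cells in Opti-MEM with 0.5% dialyzed FBS, compound exposure 5 h at 37 C in 15-point titration. Viability read in the same wells as ATP content by CellTiter-Glo luminescence, normalised to tetra-n-octylammonium bromide and DMSO controls.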

[3] = biological target: Retinoic acid receptor RXR-alpha (Homo sapiens) (UniProt P19793); assay: qHTS assay to identify small molecule agonists of the RXR signaling pathway (AID 1159527; calls by dose curve; further: on the % scale 0 is the no-effect control and ±100 the full control effect; nearly all actives have a fitted effect of over 35% in size); details: HEK293T RXRa-UAS-bla, beta-lactamase ratio, 16 h; at 76.8 µM (top of the series) unless noted
Method in brief: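 Compounds in DMSO were added to RXR-alpha-UAS-bla HEK 293T cells kept in 2% charcoal-stripped serum, and incubated 16 hr at 37 C with 5% CO2. Reporter signal came from a 2 hr B/G FRET substrate step.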

[4] = qHTS assay to identify small molecule agonists of the RXR signaling pathway - cell viability counter screen (AID 1159529); details: RXR-alpha-bla HEK293T viability, CellTiter-Glo, 16 h; at 76.8 µM (top of the series) unless noted; further: on the % scale 0 is the no-effect control and ±100 the full control effect; nearly all actives have a fitted effect of over 50% in size
Method in brief: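 Counter screen: CellTiter-Glo luminescence. Cells: RXR-alpha-UAS-bla HEK 293T. Medium: 2% charcoal-stripped FBS. Treatment: 16 h, 37 C. Reagent incubation: 30 min, RT.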

[5] = qHTS assay to identify small molecule antagonists of the retinoid acid receptor (RAR) signaling pathway - cell viability counter screen (AID 1159551); details: C3RL4 cells viability, ATP luminescence (CellTiter-Glo), 6 h; at 92.4 µM (top of the series) unless noted; further: on the % scale 0 is the no-effect control and ±100 the full control effect; nearly all actives have a fitted effect of over 35% in size
Method in brief: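 Luminescent ATP quantitation (CellTiter-Glo) gave cell viability in C3RL4 cells exposed to test chemicals for 6 h at 37 C alongside 1 uM final retinol.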

[6] = qHTS assay to identify small molecule antagonists of the retinoic acid receptor (RAR) signaling pathway (AID 1159552; further: on the % scale 0 is the no-effect control and ±100 the full control effect; nearly all actives have a fitted effect of over 50% in size); details: C3RL4 RARE luciferase reporter, retinol-stimulated, 6 h; at 92.4 µM (top of the series) unless noted
Method in brief: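 Antagonism of retinol-induced RARE reporter activity was measured in C3RL4 cells. Exposure to compounds and 1 uM final retinol lasted 6 hr at 37 C, with luminescence as endpoint.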

[7] = biological target: Bile acid receptor (Homo sapiens) (UniProt Q96RI1); assay: qHTS assay to identify small molecule antagonists of the farnesoid-X-receptor (FXR) signaling pathway (AID 743217; active means well fitted inhibition curve with a large enough effect in the signal ratio in the repeat runs, not every such curve was filed as active; the % refers to the signal ratio; further: on the % scale 0 is the no-effect control and ±100 the full control effect); details: HEK293T FXR-UAS-bla, beta-lactamase ratio, CDCA-stimulated, 16 h; at 62.6 µM (top of the series)
Method in brief: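 HEK 293T FXR-UAS-bla, 5000 cells/well; compound + CDCA 50 uM final; 16 h, 37 °C; B/G FRET substrate 2 h RT; fluorescence.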

[8] = qHTS assay to identify small molecule agonists of the farnesoid-X-receptor (FXR) signaling pathway - cell viability counter screen (AID 743218); details: FXR-bla HEK293T viability, CellTiter-Glo luminescence, 16 h; at 62.6 µM (top of the series); further: on the % scale 0 is the no-effect control and ±100 the full control effect; nearly all actives have a fitted effect of over 45% in size
Method in brief: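 HEK 293T FXR-bla cells; 5 h pre-incubation, 16 h compound exposure at 37 C; LiveBLAzer substrate 2 h RT, then CellTiter-Glo 30 min RT, luminescence.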

[9] = biological target: Bile acid receptor (Homo sapiens) (UniProt Q96RI1); assay: qHTS assay to identify small molecule agonists of the farnesoid-X-receptor (FXR) signaling pathway (AID 743220; active means well fitted activation curve with a large enough effect in the signal ratio in the repeat runs, not every such curve was filed as active; the % refers to the signal ratio; further: on the % scale 0 is the no-effect control and ±100 the full control effect); details: HEK293T FXR-UAS-bla, beta-lactamase FRET ratio, 16 h; at 62.6 µM (top of the series)
[10] = qHTS assay to identify small molecule antagonists of the farnesoid-X-receptor (FXR) signaling pathway - cell viability counter screen (AID 743221; active means well fitted cell-killing curve with a large enough effect in the repeat runs, not every such curve was filed as active; further: on the % scale 0 is the no-effect control and ±100 the full control effect; nearly all actives have a fitted effect of over 50% in size); details: FXR-bla HEK293T viability, CellTiter-Glo luminescence, 16 h; at 62.6 µM (top of the series)
Method in brief: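 Cytotoxicity is taken from ATP luminescence (CellTiter-Glo, 30 min, room temperature) in FXR-bla HEK 293T cells previously incubated 16 h at 37 C with compound and chenodeoxycholic acid at 50 uM final.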

[11] = qHTS assay to identify small molecule agonists of the vitamin D receptor (VDR) signaling pathway - cell viability counter screen (AID 743224); details: VDR-bla HEK293T viability, CellTiter-Glo luminescence, 16 h; at 62.6 µM (top of the series)
Method in brief: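 Luminescence from CellTiter-Glo, read after 30 min at room temperature, reports viability of VDR-bla cells treated with compounds for 16 h at 37C in the wells used for the beta-lactamase FRET read.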

[12] = qHTS assay to identify small molecule antagonists of the vitamin D receptor (VDR) signaling pathway - cell viability counter screen (AID 743225); details: VDR-bla HEK293T viability, CellTiter-Glo luminescence, 16 h; at 61 µM (top of the series)
Method in brief: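 Same-well multiplex: following 16 h treatment of HEK 293T cells carrying a UAS-driven beta-lactamase reporter with compound and agonist (3 nM final), and a 2 h FRET substrate step, CellTiter-Glo was added and luminescence read after 30 min.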

[13] = qHTS assay to identify small molecule agonists of the NFkB signaling pathway (AID 1159509; active means well fitted curve in the direction sought with a large enough effect in the signal ratio in the repeat runs, not every such curve was filed as active; the % refers to the signal ratio; further: on the % scale 0 is the no-effect control and ±100 the full control effect); details: NFkB-bla ME-180 cells, beta-lactamase FRET ratio, 5 h; at 61 µM (top of the series)
Method in brief: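 NFkB-bla ME-180 cells carry a beta-lactamase reporter under an NF-kB response element. They were plated overnight, then exposed to compounds for 5 h at 37 C. Read-out is LiveBLAzer FRET after 1.5 hr at room temperature (405 nm excitation; 460/530 nm emission).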

[14] = qHTS assay to identify small molecule agonists of the NFkB signaling pathway - cell viability counter screen (AID 1159515; calls by dose curve; further: on the % scale 0 is the no-effect control and ±100 the full control effect; nearly all actives have a fitted effect of over 55% in size); details: NFkB-bla ME-180 viability, CellTiter-Glo luminescence, 5 h; at 61 µM (top of the series)
Method in brief: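 Luminescence from CellTiter-Glo (30 min, room temperature) gives viability, measured in the same wells as the beta-lactamase reporter read. Cells were NFkB-bla ME-180, 2,000 per well, treated 5 hr with compounds.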

[15] = qHTS assay to identify small molecule agonists of the endoplasmic reticulum stress response signaling pathway (AID 1159516; active means well fitted activation curve with a large enough effect in the signal ratio in the repeat runs, not every such curve was filed as active; the % refers to the signal ratio; further: on the % scale 0 is the no-effect control and ±100 the full control effect); details: ESRE-bla HeLa, ER stress beta-lactamase reporter, 5 h; at 61 µM (top of the series)
Method in brief: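 Read-out is beta-lactamase cleavage of a FRET substrate (405 nm excitation; 460 and 530 nm emissions) in ESRE-bla HeLa cells after a 5 hr compound exposure at 37 C. Substrate incubation ran 2 hr at room temperature.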

[16] = qHTS assay to identify small molecule agonists of the endoplasmic reticulum stress response signaling pathway - cell viability counter screen (AID 1159517; calls by dose curve); details: ESRE-bla HeLa viability, CellTiter-Glo luminescence, 5 h; at 61 µM (top of the series)
Method in brief: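 ESRE-bla HeLa cells, 1,500 per well, seeded overnight then treated with compounds for 5 hr at 37 C. After the beta-lactamase read, viability in the same wells is measured by CellTiter-Glo luminescence after 30 min at room temperature.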

[17] = biological target: Nuclear receptor ROR-gamma (Homo sapiens) (UniProt P51449); assay: qHTS assay to identify small molecule antagonists of the retinoid-related orphan receptor gamma (ROR-gamma) signaling pathway (AID 1159521)
[18] = qHTS assay to identify small molecule agonists of the AP-1 signaling pathway (AID 1159526; calls by dose curve; further: on the % scale 0 is the no-effect control and ±100 the full control effect); details: ME-180 (cervical carcinoma) AP-1-bla reporter, beta-lactamase FRET ratio, 5 h; at 76.8 µM (top of the series) unless noted
[19] = biological target: Vitamin D3 receptor (Homo sapiens) (UniProt P11473); assay: qHTS assay to identify small molecule agonists of the vitamin D receptor (VDR) signaling pathway (AID 743222; calls by dose curve; further: on the % scale 0 is the no-effect control and ±100 the full control effect); details: HEK293T VDR-UAS-bla, beta-lactamase FRET ratio, 16 h; at 63.5 µM (top of the series)
Method in brief: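 VDR-bla cells, 2,000/well; 4 h preincubation 37C; cpd (DMSO) 16 h; LiveBLAzer B/G substrate 2 h RT; fluorescence intensity read.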

[20] = biological target: Vitamin D3 receptor (Homo sapiens) (UniProt P11473); assay: qHTS assay to identify small molecule antagonists of the vitamin D receptor (VDR) signaling pathway (AID 743223; active means well fitted inhibition curve with a large enough effect in the signal ratio in the repeat runs, not every such curve was filed as active; the % refers to the signal ratio; further: on the % scale 0 is the no-effect control and ±100 the full control effect); details: VDR-UAS-bla HEK293T, beta-lactamase FRET ratio, 16 h; at 61 µM (top of the series)
Method in brief: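 Quantitative HTS in VDR-bla reporter cells stimulated with 1alpha,25-dihydroxyvitamin D3, 3 nM final. Compound exposure 16 h, 37C, 5% CO2. Read-out: beta-lactamase FRET substrate fluorescence, 2 h RT.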

CC(C)OP(OC(C)C)OC(C)C
inactive: activity, negative = cytotoxicity [1] 9.4% | viability change, negative = cytotoxic [2] 1.72% | activation [3] 5.57% | activity change, negative = cytotoxicity [4] -7.47% | activity change, negative = cytotoxicity [5] -0.346% | activity, negative = inhibition [6] -3.55%

CCOP(=O)(Cl)Cl
inactive: activity change, negative = inhibition [7] 1.08% | viability change, negative = cytotoxic [8] 25.9% | activation [9] 3.02% and -0.204% | activity change, negative = cytotoxicity [10] -2.23% and 26.1% | activity change, negative = cytotoxicity [11] 3.32% and -2.53% | viability change, negative = cytotoxic [12] -11.5% and 2.76% | activation [13] -0.0198% and 0.0063% | activity, negative = cytotoxic [14] 5.04% and -3.52% | activation [15] -0.977% and -0.0866% | activity change, negative = cytotoxicity [16] -28.2% and 19.2% | activity, negative = cytotoxicity [1] -1.64% and 3.57% | Potency [17] | viability change, negative = cytotoxic [2] 2.08% and -4.75% | activation [18] -0.0931% and -0.236% | activation [3] -10.2% and -5.05% | activity change, negative = cytotoxicity [4] 17.3% and 4.98% | activity change, negative = cytotoxicity [5] 4.22% and 2.89% | activity, negative = inhibition [6] -6.93% and 1.06%

CCC(=O)N(c1ccccc1)C1CCNCC1
inactive: activity change, negative = inhibition [7] -12.1% | viability change, negative = cytotoxic [8] 1.42% | activation [9] -0.508% | activity change, negative = cytotoxicity [10] 5.72% | activation [19] 9.02% | activity change, negative = inhibition [20] -10.1% | activity change, negative = cytotoxicity [11] -0.811% | viability change, negative = cytotoxic [12] -3.33% | activation [13] 0.455% | activity, negative = cytotoxic [14] 0.892% | activation [15] 0.883% | activity, negative = cytotoxicity [1] 5.06% [at 42.5 µM] | viability change, negative = cytotoxic [2] -10.9% [at 35.3 µM] | activation [18] 0.846% [at 35.3 µM] | activation [3] 7.03% [at 35.3 µM] | activity change, negative = cytotoxicity [4] -12.4% [at 35.3 µM] | activity change, negative = cytotoxicity [5] -2.18% [at 42.5 µM] | activity, negative = inhibition [6] -7.03% [at 42.5 µM]

CCOP(=S)(Cl)OCC
inactive: viability change, negative = cytotoxic [8] 20.5% | activation [9] -4.81% | activity change, negative = cytotoxicity [10] -3.32% | activity change, negative = inhibition [20] -23.2% | activity change, negative = cytotoxicity [11] -13.4% | viability change, negative = cytotoxic [12] -3.13% | activation [13] -0.293% | activity, negative = cytotoxic [14] -5.7% | activation [15] 1.05% | activity change, negative = cytotoxicity [16] -3.77% | activity, negative = cytotoxicity [1] -15.4% | viability change, negative = cytotoxic [2] -7.37% | activity change, negative = cytotoxicity [4] 1.59% | activity change, negative = cytotoxicity [5] -2.88%
